Data on 10 compounds can be found in patent US20250368649A1, “TETRAHYDROPYRIDOPYRIMIDINE PAN-KRAS INHIBITORS” (Mirati Therapeutics, Inc., priority 2022, published 2025).

The chains behind the UniProt entries cited, without tags or fusion partners. Where a name states a change or a piece, a line headed by the entry shows the natural chain unless it says otherwise.
UniProt P01116: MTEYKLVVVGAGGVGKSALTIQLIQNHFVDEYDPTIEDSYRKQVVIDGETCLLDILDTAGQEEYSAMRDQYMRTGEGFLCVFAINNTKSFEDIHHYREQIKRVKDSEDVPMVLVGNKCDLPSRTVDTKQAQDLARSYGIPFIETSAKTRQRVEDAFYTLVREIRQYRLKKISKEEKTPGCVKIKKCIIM

SMILES strings stand for the structures.

Common to all, as to assay: biochemical
The target in experiment [1] is KRas G12R (Homo sapiens, UniProt P01116, G12R). Conditions: Binding to KRas (IC50 nM) G12R, TR-FRET displacement.
The target in experiment [2] is KRas G12D (Homo sapiens, UniProt P01116, G12D). The settings on record: Binding to KRas (IC50 nM) G12D, TR-FRET displacement.
The target of experiment [3] is KRas G12V (Homo sapiens, UniProt P01116, G12V). Conditions: Binding to KRas (IC50 nM) G12V, TR-FRET displacement.

In the case of `CCc1c(F)ccc2cc(O)cc(N3CCc4c(nc(OC[C@@]56CCCN5C[C@H](F)C6)nc4N4CCCC5(C4)NC(=O)CC54COC4)C3)c12` (stereo partly drawn) [Example 629, 7-(7-(8-ethyl-7-fluoro-3-hydroxynaphthalen-1-yl)-2-(((2R,7aS)-2-fluorotetrahydro-1H-pyrrolizin-7a(5H)-yl)methoxy)-5,6,7,8-tetrahydropyrido[3,4-d]pyrimidin-4-yl)-2-oxa-7,11-diazadispiro[3.0.55.34]tridecan-12-one], the IC50 in experiment [1] is 51 nM; in experiment [2] it was 35 nM; in experiment [3], 10 nM.
The like results for `CCc1c(F)ccc2cc(O)cc(N3CCc4c(nc(OC[C@@]56CCCN5C[C@H](F)C6)nc4N4CCCn5nc(CCO)cc5C4)C3)c12` [Example 630, 5-ethyl-6-fluoro-4-(2-(((2R,7aS)-2-fluorotetrahydro-1H-pyrrolizin-7a(5H)-yl)methoxy)-4-(2-(2-hydroxyethyl)-7,8-dihydro-4H-pyrazolo[1,5-a][1,4]diazepin-5(6H)-yl)-5,8-dihydropyrido[3,4-d]pyrimidin-7(6H)-yl)naphthalen-2-ol] were, in that order, 6 nM, 4 nM and 8 nM.
The like results for `Cc1cc2[nH]nnc2c(N2CCc3c(nc(OCC45CCCN4CCC5)nc3N3CCOC[C@@](C)(O)C3)C2)c1C` [Example 638, (S)-4-(7-(5,6-dimethyl-1H-benzo[d][1,2,3]triazol-4-yl)-2-((tetrahydro-1H-pyrrolizin-7a(5H)-yl)methoxy)-5,6,7,8-tetrahydropyrido[3,4-d]pyrimidin-4-yl)-6-methyl-1,4-oxazepan-6-ol] were, in that order, 10800 nM, 2950 nM and 5120 nM.
The like results for `Cc1cc2[nH]nnc2c(N2CCc3c(nc(OCC45CCCN4CCC5)nc3N3CCCC4(CNS(=O)(=O)N4)C3)C2)c1C` (stereo not drawn) [Example 639, 7-(7-(5,6-dimethyl-1H-benzo[d][1,2,3]triazol-4-yl)-2-((tetrahydro-1H-pyrrolizin-7a(5H)-yl)methoxy)-5,6,7,8-tetrahydropyrido[3,4-d]pyrimidin-4-yl)-2-thia-1,3,7-triazaspiro[4.5]decane 2,2-dioxide] were, in that order, 1280 nM, 241 nM and 357 nM.
`Cc1cc2[nH]nnc2c(N2CCc3c(nc(OCC45CCCN4CCC5)nc3N3C[C@@H]4C[C@H](C3)[C@H](O)C4)C2)c1C` [Example 640, (1R,5R,6R)-3-(7-(5,6-dimethyl-1H-benzo[d][1,2,3]triazol-4-yl)-2-((tetrahydro-11H-pyrrolizin-7a(5H)-yl)methoxy)-5,6,7,8-tetrahydropyrido[3,4-d]pyrimidin-4-yl)-3-azabicyclo[3.2.1]octan-6-ol]: the figures for the IC50 in experiment [1], in experiment [2] and in experiment [3] were 15500 nM, 50000 nM and 17900 nM, respectively.
For `CCc1c(F)ccc2cc(O)cc(N3CCc4c(nc(OCC5(CN(C)C)CC5)nc4N4CCCN(c5nccs5)CC4)C3)c12` [Example 645, 4-(2-((1-((dimethylamino)methyl)cyclopropyl)methoxy)-4-(4-(thiazol-2-yl)-1,4-diazepan-1-yl)-5,8-dihydropyrido[3,4-d]pyrimidin-7(6H)-yl)-5-ethyl-6-fluoronaphthalen-2-ol], in that order: 7 nM, 52 nM and 13 nM.
For `CCc1c(F)ccc2cc(O)cc(N3CCc4c(nc(OCC5(CN(C)C)CC5)nc4N4CCCN(CC(F)(F)F)CC4)C3)c12` [Example 646, 4-(2-((1-((dimethylamino)methyl)cyclopropyl)methoxy)-4-(4-(2,2,2-trifluoroethyl)-1,4-diazepan-1-yl)-5,8-dihydropyrido[3,4-d]pyrimidin-7(6H)-yl)-5-ethyl-6-fluoronaphthalen-2-ol], in that order: 20 nM, 95 nM and 23 nM.
Regarding `CCc1c(F)ccc2cc(O)cc(N3CCc4c(nc(OCC5(CN(C)C)CC5)nc4N4CCCN(C(=O)Cc5ccccn5)CC4)C3)c12` [Example 647, 1-(4-(2-((1-((dimethylamino)methyl)cyclopropyl)methoxy)-7-(8-ethyl-7-fluoro-3-hydroxynaphthalen-1-yl)-5,6,7,8-tetrahydropyrido[3,4-d]pyrimidin-4-yl)-1,4-diazepan-1-yl)-2-(pyridin-2-yl)ethan-1-one], the 50% inhibitory concentration (IC50) in experiment [1] was determined as 392 nM; in experiment [2], 5570 nM; in experiment [3] it was 1140 nM.
Take `CCc1c(F)ccc2cc(O)cc(N3CCc4c(nc(OC[C@@]56CCCN5C[C@H](F)C6)nc4N4CCCN(C(=O)Cc5ccccn5)CC4)C3)c12` [Example 650, 1-(4-(7-(8-ethyl-7-fluoro-3-hydroxynaphthalen-1-yl)-2-(((2R,7aS)-2-fluorotetrahydro-1H-pyrrolizin-7a(5H)-yl)methoxy)-5,6,7,8-tetrahydropyrido[3,4-d]pyrimidin-4-yl)-1,4-diazepan-1-yl)-2-(pyridin-2-yl)ethan-1-one]: the IC50 in experiment [1] was determined as 528 nM; in experiment [2] it was 3440 nM; in experiment [3], 718 nM.
The like results for `CCc1c(F)ccc2cc(O)cc(N3CCc4c(nc(OC[C@@]56CCCN5C[C@H](F)C6)nc4N4C[C@H]5CC[C@@H](C4)[C@H]5C#N)C3)c12` [Example 652, (1R,5S,8R)-3-(7-(8-ethyl-7-fluoro-3-hydroxynaphthalen-1-yl)-2-(((2R,7aS)-2-fluorotetrahydro-1H-pyrrolizin-7a(5H)-yl)methoxy)-5,6,7,8-tetrahydropyrido[3,4-d]pyrimidin-4-yl)-3-azabicyclo[3.2.1]octane-8-carbonitrile] were, in that order, 1410 nM, 3120 nM and 1240 nM.
